# Source: US8377967B2, “Piperidine derivative” (Nippon Zoki Pharmaceutical Co., Ltd., priority 2008, dated 2013)
# By UniProt entry, the sequences of proteins in these tests, tags left out.
# UniProt P70174, whole entry: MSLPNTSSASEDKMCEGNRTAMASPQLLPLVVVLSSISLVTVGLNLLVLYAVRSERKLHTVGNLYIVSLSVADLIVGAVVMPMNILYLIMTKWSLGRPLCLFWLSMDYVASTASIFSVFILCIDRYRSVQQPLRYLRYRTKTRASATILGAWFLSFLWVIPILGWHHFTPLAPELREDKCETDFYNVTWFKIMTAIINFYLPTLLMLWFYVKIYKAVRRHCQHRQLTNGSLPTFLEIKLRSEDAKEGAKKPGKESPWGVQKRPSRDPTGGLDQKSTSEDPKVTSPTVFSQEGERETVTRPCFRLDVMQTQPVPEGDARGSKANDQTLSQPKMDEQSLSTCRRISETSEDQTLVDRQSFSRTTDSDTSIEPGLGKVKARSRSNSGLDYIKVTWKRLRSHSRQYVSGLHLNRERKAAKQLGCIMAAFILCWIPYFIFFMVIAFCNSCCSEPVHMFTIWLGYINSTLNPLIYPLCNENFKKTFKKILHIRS
# Molecular target: T1, cerebral H1 receptor (Mus musculus, UniProt P70174)
# T1 construct: the entire brain, except for cerebellum and medulla oblongatae, was rapidly excised; from tissue; host or cells: brain homogenate (without cerebellum and medulla oblongata) of orally dosed ICR male mice
# Assay: Murine cerebral H1 receptor occupying content (ex vivo)
# Assay type: in vivo
# Settings: ID50 of cerebral receptor binding test (Table 20) divided by ED50 of vascular hyperpermeability test (Table 19)
# Description: A 6-week-old ICR male mouse was previously fed for one week or more by allowing the mouse to take a solid feed and tap water ad libitum, under the environment setting of a temperature of 22° C., humidity of 55% and an artificial illumination of 12 hours a day, and the mouse was fasted overnight to be used for the experiment. A substance to be tested was dissolved with water for injection or suspended in 0.5% carboxymethyl cellulose solution, and the solution or suspension was orally administered to the mouse (dose volume: 0.1 mL/10 g body weight). […]
# To a test tube for reaction (TPX-Tube) were added 180 μL of the brain homogenate, and 10 μL of ^3H-pyrilamine solution (final concentration: 2 nmol/L) and 10 μL of a non-labeled pyrilamine solution (final concentration: 200 μmol/L) or a 50 mmol/L phosphate buffered saline, and the mixture was incubated at room temperature for 45 minutes, and 2.0 mL of an ice-cooled, 50 mmol/L phosphate buffered saline was then added thereto to stop the reaction. […] After drying, 10 mL of a scintillator (AL-1, toluene-based, manufactured by DOJINDO LABORATORIES) was added to the product, and the disintegration per minute (dpm) was measured with a liquid scintillation counter (manufactured by Packard, U.S.A., TRI-CARB 2700TR) (5 minutes/vial).
structure (smiles),measurement,value
"CN1CCC(=C2c3ccccc3CC(=O)c3sccc32)CC1 [Ketotifen, reference compound]",ID50 (mg/kg)/ ED50 (mg/kg),0.9
